# Test results taken from published antibiotic growth screens (doi:10.1038/s41589-023-01349-8).
# This is one part of the list.
# System: A. baumannii ATCC 17978
# Assay: relative growth (fraction of control); higher = less inhibition
# Conditions: 50 µM
row,SMILES,relative growth
1,O=C(CCCCCCC(=O)Nc1ccccc1)NO,0.889
2,CS(=O)(=O)Nc1ccc2c(c1)C(=O)NC2=O,1.13
3,C[C@@H]1CN([C@H](C)CO)S(=O)(=O)c2ccc(C#Cc3cccnc3)cc2O[C@@H]1CN(C)CC1CCOCC1,1.06
4,COCCOC(=O)N1C(=O)[C@@]2(c3cc(C#CC4(O)CCCCCC4)ccc31)[C@H](c1ccc(OCCO)cc1)N1[C@H](c3ccccc3)[C@H](c3ccccc3)OC(=O)[C@H]1[C@@H]2C(=O)N1CCN(c2ncccn2)CC1,1.09
5,O=C(CS)NCCCCCNC(=O)[C@@H]1C[C@@H]2C(=O)N[C@@H](Cc3ccccc3)C(=O)N2[C@@H]1c1ccc(O)cc1,0.952
6,COc1ccccc1N1CCN(CCCNc2cc(=O)n(C)c(=O)n2C)CC1.Cl,1.1
7,O[C@H]1[C@H](O)[C@@H](O)C(c2ccc(Cl)c(Cc3ccc(OC4CCOC4)cc3)c2)O[C@@H]1O (some centres not stated),1.01
8,O=C(NC1CCCCC1)[C@@H]1C(c2ccc(Cl)cc2)=C(S(=O)(=O)c2ccccc2)C(=O)N1Cc1ccc(-c2ccccc2)cc1,1.01
9,O=S(=O)(NCC[C@@H]1CC[C@@H](NS(=O)(=O)c2cccc(Cl)c2)[C@@H](CO)O1)c1cccc(F)c1,0.816
10,COc1ccc(S(=O)(=O)Nc2ccc3c(c2)[C@@H]2C[C@@H](CC(=O)NCC4CC4)O[C@@H](CO)[C@@H]2O3)cc1,0.957
11,O=C(C[C@H]1CC[C@H]2[C@@H](COC[C@H](O)CN2Cc2cc(F)ccc2F)O1)N[C@H]1CCN(Cc2ccccc2)C1,1.05
12,C[C@H](CO)N1C[C@H](C)[C@H](CN(C)S(C)(=O)=O)Oc2cc(C#CCN(C)C)ccc2S1(=O)=O,0.898
13,NNC(=O)CS(=O)(=O)c1ccc(Cl)cc1,0.998
14,O=C(CN1CCOCC1)NCC[C@@H]1CC[C@@H](NS(=O)(=O)c2ccc(Cl)cc2)[C@H](CO)O1,1.25
15,CCS(=O)(=O)NCC[C@@H]1CC[C@@H](NS(=O)(=O)c2cccc(F)c2)[C@@H](CO)O1,0.846
16,Cn1cnc(S(=O)(=O)N[C@H]2CC[C@H](CC(=O)Nc3ccccc3)O[C@@H]2CO)c1,1.04
17,OCC(O)CO,1.06
18,CN(C)C(=O)C[n+]1ccc(/C=N/O)cc1,1.02
19,C[C@@H]1CN([C@H](C)CO)S(=O)(=O)c2ccc(C#CC3(O)CCCC3)cc2O[C@@H]1CN(C)C(=O)Cc1cccnc1,0.985
20,O=C1COC[C@@H](c2ccccc2)N1,0.99
21,Cc1cccc(N(CC(=O)O)CC(=O)O)c1,1.03
22,O=C(C[C@@H]1C=C[C@@H](NC(=O)c2cnccn2)[C@H](CO)O1)NCc1ccccc1F,1.07
23,CCN(CC)CCOc1ccc2c(c1)C(=O)c1cc(OCCN(CC)CC)ccc1-2,1.05
24,CC[C@H](/C=C/C(C)C1CCC2C3CCC4=CC(=O)CC[C@]4(C)C3CC[C@]12C)C(C)C (some centres not stated),0.926
25,C[C@@H]1CN([C@H](C)CO)S(=O)(=O)c2ccc(-c3cncnc3)cc2O[C@H]1CN(C)C(=O)NC1CCCC1,1.11
26,CC(=O)O[C@@]1(C)C[C@@H](O)[C@@H]2C=CO[C@@H](O[C@@H]3O[C@H](CO)[C@@H](O)[C@H](O)[C@H]3O)[C@@H]21,1.17

row,SMILES,relative growth
1,C[C@H]1CN([C@@H](C)CO)C(=O)CCCn2nncc2CO[C@@H]1CN(C)S(=O)(=O)c1ccc(-n2cccn2)cc1,0.954
2,COc1ccc(NC(=O)N(C)C[C@@H]2Oc3ncc(C#C[C@@H](C)O)cc3C(=O)N([C@H](C)CO)C[C@@H]2C)cc1,0.948
3,C=C[C@@]1(C)CC(=O)[C@]2(O)[C@@]3(C)[C@@H](O)CCC(C)(C)[C@@H]3[C@H](O)[C@H](OC(C)=O)[C@@]2(C)O1,0.891
4,O=C(C[C@H]1CC[C@H]2[C@@H](COC[C@H](O)CN2S(=O)(=O)c2cccc(Cl)c2)O1)NCCCN1CCOCC1,0.901
5,COc1cccc(S(=O)(=O)N2C[C@H](O)COC[C@@H]3O[C@@H](CC(=O)NCCCN4CCOCC4)CC[C@H]32)c1,0.975
6,CCN(CC)C(=S)SSC(=S)N(CC)CC,0.332
7,C/C(=C(\CCOP(=O)(O)O)SC(=O)c1ccccc1)N(C=O)Cc1cnc(C)nc1N,0.984
8,CC(C)C[C@@H]1NC(=O)[C@H]2C[C@@H](C(=O)NCCCCCCNC(=O)CS)[C@@H](c3ccc(O)cc3)N2C1=O,1.03
9,NCC[C@H]1CC[C@@H](NC(=O)c2ccccc2F)[C@H](CO)O1,1.07
10,COc1ccc(-c2coc3cc(O)ccc3c2=O)c(OC)c1OC,0.987
11,CCOC(=O)[C@H](CCc1ccccc1)N[C@@H](C)C(=O)N(CC(=O)O)C1Cc2ccccc2C1.Cl,0.922
12,Nc1c2c(nc3ccccc13)CCCC2,0.791
13,CN1CC(O)C2=C/C(=N/NC(N)=O)C(=O)C=C21 (configuration not stated),0.995
14,CC(O)C(=O)O.CCOc1ccc2nc3cc(N)ccc3c(N)c2c1,0.924
15,CNC[C@H](O)[C@@H](O)[C@H](O)[C@H](O)CO.Cc1c(Nc2ncccc2C(=O)O)cccc1C(F)(F)F,0.873
16,O=c1cc(-c2ccccc2)oc2cc(O)cc(O)c12,1.02
17,Cn1c(=O)c2c(ncn2CCCN)n(C)c1=O,0.928
18,COc1ccccc1S(=O)(=O)N[C@H]1CC[C@@H](CCNC(=O)C2CC2)O[C@@H]1CO,1.11
19,C=CCOC(=O)[C@@H]1[C@H]2C(=O)O[C@H](c3ccccc3)[C@H](c3ccccc3)N2[C@H](c2ccc(OCCOC(=O)[C@H]3C[C@H]4C(=O)N[C@@H](CCCC[N+](C)(C)C)C(=O)N4[C@H]3c3cccc(OCCO)c3)cc2)[C@@]12C(=O)Nc1ccc(I)cc12,1.09
20,CC(C)(C)C(=O)C(Oc1ccc(Cl)cc1)n1ccnc1 (configuration not stated),1.04
21,O=C(C[C@@H]1C=C[C@@H](NS(=O)(=O)c2ccc(F)cc2)[C@@H](CO)O1)N1CCC(Cc2ccccc2)CC1,0.929
22,O=C(C[C@@H]1CC[C@H]2[C@@H](COC[C@@H](O)CN2S(=O)(=O)c2ccc(Cl)cc2)O1)N[C@H]1CCN(Cc2ccccc2)C1,0.954
23,Clc1ccc2sc(Sc3ccccc3)nc2c1,0.984
24,Cc1c(C)n2c3c(=O)n(C)c(=O)n(C)c3nc2n1CCO,1.01
25,O=C(O)c1cccc(C(=O)O)n1,1.02
26,"CC(C)=CCC/C(C)=C/CC/C(C)=C/CO [trans,trans-FARNESOL]",0.587
